The text below walks through data of paper PMC4691061, “Repositioning of Thiourea-Containing Drugs as Tyrosinase Inhibitors” (International Journal of Molecular Sciences, 2015).

By UniProt entry, the sequences of proteins in these tests, tags left out. Residues count along the entry.
UniProt C7FF04, 1-392: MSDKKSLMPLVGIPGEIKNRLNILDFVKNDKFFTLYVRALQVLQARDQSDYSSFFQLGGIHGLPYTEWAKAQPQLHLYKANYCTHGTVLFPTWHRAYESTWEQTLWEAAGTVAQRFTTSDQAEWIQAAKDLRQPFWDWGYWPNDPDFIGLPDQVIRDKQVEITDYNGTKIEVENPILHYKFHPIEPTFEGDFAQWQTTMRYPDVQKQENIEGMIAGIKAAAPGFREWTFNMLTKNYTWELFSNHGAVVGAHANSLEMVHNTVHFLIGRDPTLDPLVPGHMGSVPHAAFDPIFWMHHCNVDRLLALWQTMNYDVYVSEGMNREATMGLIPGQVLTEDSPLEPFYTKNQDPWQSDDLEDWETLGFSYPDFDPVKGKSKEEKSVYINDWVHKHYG

For the experiment, the target named is mushroom tyrosinase (Agaricus bisporus, UniProt C7FF04). In words: Mushroom tyrosinase enzyme activity inhibition assay. It counts as biochemical.

In the case of `Cn1cc[nH]c1=S` [compound 5, Methimazole], the “LE (ligand efficiency)” value amounted to 0.81.

Regarding `CCCc1cc(=O)[nH]c(=S)[nH]1` [compound 9, Propylthiouracil], the “LE (ligand efficiency)” value came out at 0.44.
